Reference: patent publication US9914709B2 (dated 2018)

Each compound was assayed on MT-2 human T-cells (assay: Cytotoxicity, inhibition of MT-2 cell growth). Settings: read-out: cytotoxicity (CC50); Table 4; human MT-2 cells.
Compound `Cc1cc(C)c(Nc2cc(OCCCN3CCOCC3)nc(Nc3ccc(C#N)cc3)n2)c(C)c1` [Compound 5b, 4-((4-(mesitylamino)-6-(3-morpholinopropoxy)pyrimidin-2-yl)amino)benzonitrile] has a CC50 of 3.1 µM.
`Cc1cc(C)c(Nc2nc(Nc3ccc(C#N)cc3)nc(OCCN3CCOCC3)n2)c(C)c1` [Compound 6a, 4-((4-(mesitylamino)-6-(2-morpholinoethoxy)-1,3,5-triazin-2-yl)amino)benzonitrile] gave a CC50 of 95 µM.
In the case of `Cc1cc(/C=C/C#N)cc(C)c1Nc1nc(Nc2ccc(C#N)cc2)nc(OCCCN2CCOCC2)n1` [Compound 6d, (E)-4-((4-((4-(2-cyanovinyl)-2,6-dimethylphenyl)amino)-6-(3-morpholinopropoxy)-1,3,5-triazin-2-yl)amino)benzonitrile], the CC50 is reported as 4.5 µM.
Work on `CCc1cc(F)c(Nc2nc(Nc3ccc(C#N)cc3)nc(OCCCN3CCOCC3)n2)c(F)c1` [Compound 6f, 4-((4-((4-ethyl-2,6-difluorophenyl)amino)-6-(3-morpholinopropoxy)-1,3,5-triazin-2-yl)amino)benzonitrile] yielded a CC50 of 13 µM.
`CC(C)c1cc(F)c(Nc2nc(Nc3ccc(C#N)cc3)nc(OCCCN3CCOCC3)n2)c(F)c1` [Compound 6g, 4-((4-((2,6-difluoro-4-isopropylphenyl)amino)-6-(3-morpholinopropoxy)-1,3,5-triazin-2-yl)amino)benzonitrile] was tested, and the CC50 was 1.5 µM.
In the case of `N#Cc1ccc(Nc2nc(Nc3c(F)cc(C4CC4)cc3F)nc(OCCCN3CCOCC3)n2)cc1` [Compound 6h, 4-((4-((4-cyclopropyl-2,6-difluorophenyl)amino)-6-(3-morpholinopropoxy)-1,3,5-triazin-2-yl)amino)benzonitrile], the CC50 is reported as 2.2 µM.
With `Cc1cc(C)c(Nc2nc(Nc3ccc(C#N)cc3)nc(OCCC3CCNCC3)n2)c(C)c1` [Compound 12a, 4-((4-(mesitylamino)-6-(2-(piperidin-4-yl)ethoxy)-1,3,5-triazin-2-yl)amino)benzonitrile] the CC50 was 4.2 µM.
`Cc1cc(C#N)cc(C)c1Oc1nc(Nc2ccc(C#N)cc2)nc(N)c1Br` [etravirine] was tested, and the CC50 was 11 µM.
